{
  "source": "paper PMC7563123",
  "about": "(Biomolecules, 2020)",
  "settings_in_all_cases": "both partners purified",
  "key": {"[1]": {"target": "T1, amyloid beta peptide 1-42 (Aβ1–42) (human, UniProt P05067 672-713)", "T1 construct": "amyloid beta peptide of 42 amino acids, human, produced from amyloid precursor protein; numbers count on: the Aβ peptide; One peptide used in two states; Preparation B (NaOH) is called monomeric, though it might hold monomers and low oligomers; Preparation A (plain dilution of the stock) is called oligomeric, and the size of the oligomers is not determined; The states are told apart by the …", "assay": "SPR; oligomeric Aβ1–42 (Preparation A, dilution of the stock), 1.1-0.055 μM, flowed over cypD or 17β-HSD10 captured by immobilised antibody; running buffer RB1 (10 mM HEPES pH 7.4, BSA 200 μg/mL, 5 mM Na+, 140 mM K+, 1 mM Mg2+); 25 °C, 20 µL/min; global fit, 1:1 Langmuir model"}, "[2]": {"target": "T1, amyloid beta peptide 1-42 (Aβ1–42)", "assay": "SPR; monomeric Aβ (Aβ1–40 by Preparation C, HFIP; Aβ1–42 by Preparation B, NaOH), five concentrations, flowed over cypD or 17β-HSD10 captured by immobilised antibody; running buffer RB1 (10 mM HEPES pH 7.4, BSA 200 μg/mL, 5 mM Na+, 140 mM K+, 1 mM Mg2+); 25 °C, 20 µL/min; global fit, 1:1 Langmuir model"}, "[3]": {"target": "T2, amyloid beta peptide 1-40 (Aβ1–40) (human, UniProt P05067 672-711)", "T2 construct": "amyloid beta peptide of 40 amino acids, human, produced from amyloid precursor protein; numbers count on: the Aβ peptide; Stock dissolved in 1% NH4OH and diluted by PBS to 100 μM; Preparation C (HFIP) is called monomeric, though it might hold monomers and low oligomers; also called monomeric Aβ_(1–40); source: synthetic peptide, bought: AnaSpec", "assay": "SPR; monomeric Aβ (Aβ1–40 by Preparation C, HFIP; Aβ1–42 by Preparation B, NaOH), five concentrations, flowed over cypD or 17β-HSD10 captured by immobilised antibody; running buffer RB1 (10 mM HEPES pH 7.4, BSA 200 μg/mL, 5 mM Na+, 140 mM K+, 1 mM Mg2+); 25 °C, 20 µL/min; global fit, 1:1 Langmuir model"}},
  "data": [
    {"binder": "17β-hydroxysteroid dehydrogenase type 10 (17β-HSD10), human recombinant, commercial (enzyme, UniProt Q99714 1-261, looked up, 17β-hydroxysteroid dehydrogenase 10, human recombinant, NCBI Gene ID 3028; Commercial protein; It was held on the chip by an immobilised anti-17β-HSD10 antibody; also called 17β-HSD10_(commercial); source: bought: Fitzgerald) MAAACRSVKGLVAVITGGASGLGLATAERLVGQGASAVLLDLPNSGGEAQAKKLGNNCVFAPADVTSEKDVQTALALAKGKFGRVDVAVNCAGIAVASKTYNLKKGQTHTLEDFQRVLDVNLMGTFNVIRLVAGEMGQNEPDQGGQRGVIINTASVAAFEGQVGQAAYSASKGGIVGMTLPIARDLAPIGIRVMTIAPGLFGTPLLTSLPEKVCNFLASQVPFPSRLGDPAEYAHLVQAIIENPFLNGEVIRLDGAIRMQP", "values": [
      {"measurement": "Kd", "setting": "[1]", "value": "8 ± 3.7", "unit": "nM"},
      {"measurement": "koff", "setting": "[1]", "value": "3.1e-05", "unit": "s⁻¹"},
      {"measurement": "kon", "setting": "[1]", "value": 4040, "unit": "M⁻¹ s⁻¹"},
      {"measurement": "Kd", "setting": "[2]", "value": "181 ± 16", "unit": "nM"},
      {"measurement": "koff", "setting": "[2]", "value": 0.000112, "unit": "s⁻¹"},
      {"measurement": "kon", "setting": "[2]", "value": 650, "unit": "M⁻¹ s⁻¹"},
      {"measurement": "Kd", "setting": "[3]", "value": "74.5 ± 1.8", "unit": "nM"},
      {"measurement": "koff", "setting": "[3]", "value": "4.7e-05", "unit": "s⁻¹"},
      {"measurement": "kon", "setting": "[3]", "value": 630, "unit": "M⁻¹ s⁻¹"}
    ]}
  ]
}
